{"sequences": {"note": "The chains behind the UniProt entries cited, without tags or fusion partners. Residues count along the entry.", "UniProt Q63118, 24-464": "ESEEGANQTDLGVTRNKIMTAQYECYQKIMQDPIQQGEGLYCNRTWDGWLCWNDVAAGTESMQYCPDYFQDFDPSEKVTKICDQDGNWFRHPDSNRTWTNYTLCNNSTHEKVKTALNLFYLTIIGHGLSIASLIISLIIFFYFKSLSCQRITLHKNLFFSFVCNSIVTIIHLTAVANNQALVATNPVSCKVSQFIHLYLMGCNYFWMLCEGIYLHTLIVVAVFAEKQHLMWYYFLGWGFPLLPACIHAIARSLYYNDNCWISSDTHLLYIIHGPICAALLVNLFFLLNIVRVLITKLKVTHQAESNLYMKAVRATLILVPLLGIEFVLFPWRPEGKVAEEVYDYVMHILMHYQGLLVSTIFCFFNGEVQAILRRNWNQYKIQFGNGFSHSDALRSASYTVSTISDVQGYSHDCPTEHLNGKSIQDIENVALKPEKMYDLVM", "UniProt Q9JJ74, 27-148": "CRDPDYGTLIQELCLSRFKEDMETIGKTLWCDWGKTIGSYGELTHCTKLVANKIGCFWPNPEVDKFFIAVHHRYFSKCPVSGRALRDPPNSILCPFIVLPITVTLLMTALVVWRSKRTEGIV"}, "source": "patent US7632832B2", "about": "“CGRP receptor antagonists” (Merck & Co., Inc., priority 2005, dated 2009)", "origin": "cited, not measured here", "key": {"CGRP [1]": {"target": "T1, CGRP (Rattus norvegicus, UniProt Q63118+Q9JJ74)", "T1 construct": "host or cells: living rat (dural / facial vasculature)", "details": "trigeminal ganglion stimulation (Escott et al. 1995)"}, "CGRP [2]": {"target": "T1, CGRP", "details": "rats, electrical stimulation of the dura mater, prior administration (Williamson et al. 1997)"}}}
{"substance": "CGRP(8-37)", "values": [{"measurement": "effect on increased facial blood flow", "setting": "CGRP [1]", "result": "inhibited"}, {"measurement": "effect on increased diameter of the middle meningeal artery", "setting": "CGRP [2]", "result": "blocked"}]}
